Bioassay records as filed in PubChem BioAssay.
Compounds with a hit are over-represented: about 16% of the library has one in this group of screens.
miR-21 reporter: miR-21 reporter, rising signal | AID 2288 | HeLa miR-21 FLuc reporter, luciferase, 48 h | 340,000 tested, under 10 active | Potency, µM (titrated, usually from 38.3 µM), for the others: at the top dose reporter change, positive = more light; active = well fitted rising curve with a large enough effect; inconclusive = small, poorly fitted or top-dose-only effect; inactive = no such curve, though single readings can be large or run the other way;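 also: % of control where 0% means no effect; miR-21 action dims this reporter so a rising signal means less miR-21 action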
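HeLa cells stably expressing CMV-driven firefly luciferase with a downstream miR-21 binding sequence, endogenously expressing miR-21, were treated with titrations (up to about 40uM final) for 48 hours at 37 degree Celsius. Luciferase luminescence was read after lysis.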
TDP1 cell noCPT: qHTS for Inhibitors of human tyrosyl-DNA phosphodiesterase 1 (TDP1): qHTS in cells in absence of CPT; 420,000 compounds, 15% hits; DT40 Tdp1-/- hTDP1 cells, no CPT, ATP luminescence, 48 h; Potency, µM (top dose mostly 46.2 µM), for inactives: at the highest dose activity change, negative = growth inhibition, most hits filed as inhibitors; also: potency is read from the fitted curve at half-maximal effect; % is scaled to controls: 0 for no effect and ±100 for the full control effect; nearly all actives have a fitted effect of over 55% in size
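Chicken DT40 Tdp1-/- cells complemented with human TDP1, screened without camptothecin (DMSO vehicle only), 400 cells/well. Compounds pin-transferred, cells incubated at 37 °C for at least 48 hr. Growth read as ATP-dependent luminescence (CellTiter-Glo, 30 min at RT).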
TDP1 block: TDP1 (human) enzyme inhibition; Q9NUW8; recombinant TDP1, AlphaScreen DNA substrate cleavage; Potency, µM (doses to about 130 µM), for the others: at the top dose activity change, negative = inhibition, usual class: inhibitors; 350,000 compounds, 0.28% hits; also: potency is read from the fitted curve at half-maximal effect; % is scaled to controls: 0 for no effect and ±100 for the full control effect; nearly all actives have a fitted effect of over 40% in size
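Signal: AlphaScreen proximity between streptavidin donor and anti-FITC acceptor beads on intact substrate. Reaction: Tdp1 1 nM, substrate 15 nM final, 5 min RT after 15 min compound preincubation.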
uPA generation: cell surface uPA generation inhibition; cell surface uPA generation assay, qHTS; Potency, µM (highest dose often 38.3 µM), without a hit: at the top dose activity change, negative = inhibition, actives largely listed as inhibitors; 330,000 compounds, 0.31% hits; AID 540303; active = well fitted inhibition curve with a large enough effect; inconclusive = small, poorly fitted or top-dose-only effect; inactive = no such curve, though single readings can be large or run the other way; tested in mouse RAW 264.7 cells; also: potency is read from the fitted curve at half-maximal effect; % is scaled to controls: 0 for no effect and ±100 for the full control effect; nearly all actives have a fitted effect of over 55% in size
TDP1 cell CPT: growth inhibition of DT40 Tdp1-/-;hTDP1 cells with camptothecin (screen for TDP1 inhibitors); chicken DT40 Tdp1-/-;hTDP1 cells + 20 nM CPT, ATP luminescence, 48 h; Potency, µM (top dose mostly 46.2 µM), for the others: at the highest dose activity change, negative = growth inhibition, hits mostly inhibitors; 420,000 compounds, 12% hits; AID 686979; also: potency is read from the fitted curve at half-maximal effect; % is scaled to controls: 0 for no effect and ±100 for the full control effect; nearly all actives have a fitted effect of over 55% in size
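Cell growth measured by CellTiter-Glo luminescence after a minimum 48 h, 37 C compound exposure with 20 nM CPT in Tdp1-knockout DT40 cells stably expressing hTDP1, seeded 400/well; qHTS titration format.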
* marks the source's active call; other numbers are inactive results; [ ] = another dose, or the depositor's remark. Unless noted, calls follow the shape of the dose curve; as a rule, active = well fitted curve in the direction sought with a large enough effect; inconclusive = small, poorly fitted or top-dose-only effect, or another doubt; inactive = no such curve, though single readings can be large; an effect the other way counts as inactive or inconclusive.

Results for COc1ccc(Nc2nc(N)nc(CCl)n2)cc1 ?
miR-21 reporter: 17%; TDP1 cell noCPT: inconclusive; TDP1 block: 9%; uPA generation: 2.5µM*; TDP1 cell CPT: 23µM*

Results for O=C(c1ccccc1)C(CN1CCCC1)c1ccccc1 (stereo unspecified) ?
miR-21 reporter: inconclusive; TDP1 cell noCPT: 1.6µM*; TDP1 block: -2%; uPA generation: -7%; TDP1 cell CPT: 1.8µM*

What do the screens show for `Oc1c(Br)c(Br)c(Br)c(Br)c1Br`?
TDP1 cell noCPT: inconclusive; TDP1 block: 4%; uPA generation: 12%; TDP1 cell CPT: inconclusive

What do the screens show for `Cc1cccc(CN2CCc3nc(N4CCN(c5ccccn5)CC4)ncc3C2)c1`?
miR-21 reporter: inconclusive; TDP1 cell noCPT: 10µM*; TDP1 block: -1%; TDP1 cell CPT: 15µM*

What do the screens show for `Cc1cccc(CN2CCN(C(=O)Cc3ccccc3)CC2)c1`?
miR-21 reporter: -1%; TDP1 cell noCPT: -24%; uPA generation: -2%; TDP1 cell CPT: 1%

Results for COc1cc(NC(=O)c2ccco2)ccc1NC(=O)c1ccccc1Cl ?
miR-21 reporter: -1%; TDP1 cell noCPT: inconclusive; TDP1 block: 2%; uPA generation: -10%; TDP1 cell CPT: 4%

How did COc1ccc(NC(=O)c2ccco2)cc1NC(=O)COc1cc(C)cc(C)c1 do in these assays?
miR-21 reporter: 8%; TDP1 cell noCPT: 5.8µM*; TDP1 block: -1%; TDP1 cell CPT: 8.2µM*

Results for CC1(CCCc2ccc(N(CCCl)CCCl)cc2)NC(=O)NC1=O (stereo unspecified) ?
TDP1 cell noCPT: 0.52µM*; TDP1 cell CPT: 0.41µM*

How did CCCCCCn1c(O)c(C=NC2CCCCC2N)c(=O)[nH]c1=O (stereo unspecified) do in these assays?
miR-21 reporter: -6%; TDP1 cell noCPT: 16µM*; TDP1 block: 4%; uPA generation: 1%; TDP1 cell CPT: 16µM*

Results for COc1cccc(-c2sc3ccccc3c2-c2ccc(OCCN3CCOCC3)cc2)c1 ?
TDP1 cell noCPT: inconclusive; TDP1 block: 6%; uPA generation: -11%; TDP1 cell CPT: inconclusive

What do the screens show for `COc1ccc(-c2sc3ccccc3c2-c2ccc(OCCN(C)C)cc2)cc1`?
TDP1 cell noCPT: 23µM*; TDP1 block: 13%; uPA generation: inconclusive; TDP1 cell CPT: inconclusive

Results for Cc1c(Cl)cccc1N1C(=O)NC(=O)/C(=C\c2cc(C)n(-c3cccc(C(=O)O)c3C)c2C)C1=O ?
miR-21 reporter: 1%; TDP1 cell noCPT: 12%; uPA generation: 2%; TDP1 cell CPT: 0%

How did Nc1ccc(Cl)cc1N do in these assays?
TDP1 cell noCPT: -29%[92.5 µM]; TDP1 block: 21%; TDP1 cell CPT: inconclusive

Results for CC(=O)NC1=C(N2CC2C)C(=O)C(NC(C)=O)=C(N2CC2C)C1=O (stereo unspecified) ?
TDP1 cell noCPT: 4.6µM*; uPA generation: -7%; TDP1 cell CPT: 1.8µM*

What do the screens show for `CCN1CCN(Cc2cc(Br)cc(Br)c2O)CC1`?
miR-21 reporter: -1%; TDP1 cell noCPT: 16µM*; TDP1 block: 7%; uPA generation: 0%; TDP1 cell CPT: inconclusive

4 entries out of the list, sorted by molar mass, falling:
What do the screens show for `Cc1cccc(CN2CCc3nc(N4CCN(c5ccccn5)CC4)ncc3C2)c1`?
miR-21 reporter: inconclusive; TDP1 cell noCPT: 10µM*; TDP1 block: -1%; TDP1 cell CPT: 15µM*

What do the screens show for `CCN1CCN(Cc2cc(Br)cc(Br)c2O)CC1`?
miR-21 reporter: -1%; TDP1 cell noCPT: 16µM*; TDP1 block: 7%; uPA generation: 0%; TDP1 cell CPT: inconclusive

Results for CC(=O)NC1=C(N2CC2C)C(=O)C(NC(C)=O)=C(N2CC2C)C1=O (stereo unspecified) ?
TDP1 cell noCPT: 4.6µM*; uPA generation: -7%; TDP1 cell CPT: 1.8µM*

What do the screens show for `Cc1cccc(CN2CCN(C(=O)Cc3ccccc3)CC2)c1`?
miR-21 reporter: -1%; TDP1 cell noCPT: -24%; uPA generation: -2%; TDP1 cell CPT: 1%

Further entries follow:
Results for COc1cc(Br)cc(CN2CCN(C)CC2)c1O ?
miR-21 reporter: -11%; TDP1 cell noCPT: 1%; TDP1 block: 1%; TDP1 cell CPT: 0%

Results for C#C[C@]1(O)CC[C@H]2[C@@H]3CCC4=Cc5nc6nc7ccccc7n6cc5C[C@]4(C)[C@H]3CC[C@@]21C ?
TDP1 cell noCPT: 12µM*; uPA generation: -10%; TDP1 cell CPT: inconclusive

What do the screens show for `CC(=O)OC1CCC2(/C=N/O)C(=CCC3C4CCC(=O)C4(C)CCC32)C1` (stereo unspecified)?
miR-21 reporter: 0%; TDP1 cell noCPT: inconclusive; uPA generation: -4%; TDP1 cell CPT: -18%

How did CN1C(=O)N(C)C(=O)C2(Cc3cc(NC(=O)c4ccccc4)ccc3N3CCCC32)C1=O (stereo unspecified) do in these assays?
miR-21 reporter: -7%; TDP1 cell noCPT: 8%; TDP1 block: 3%; uPA generation: 2%; TDP1 cell CPT: -1%

How did O=C(Nc1ccc(Cl)c(C(F)(F)F)c1)c1ccc2c(c1)CCN2S(=O)(=O)c1ccccc1 do in these assays?
miR-21 reporter: inconclusive; TDP1 cell noCPT: 9.2µM*; TDP1 block: 5%; TDP1 cell CPT: 9.2µM*

What do the screens show for `CC1CCN(C(CC(=O)c2ccccc2)C(=O)c2ccccc2)CC1` (stereo unspecified)?
TDP1 cell noCPT: 2.1µM*; uPA generation: -12%; TDP1 cell CPT: 2.6µM*

What do the screens show for `O=C(CN1CCCCC1)c1ccccc1`?
TDP1 cell noCPT: -15%; TDP1 cell CPT: -27%

Results for CC(=O)c1ccc(NC(=O)N2C[C@H]3C[C@@H](C2)c2cccc(=O)n2C3)cc1 ?
miR-21 reporter: -4%; TDP1 cell noCPT: 2%; uPA generation: -1%; TDP1 cell CPT: 21%

What do the screens show for `CC1=CC(=O)C2=C(C)C[C@@H](O)[C@@H]3[C@@H](OC(=O)[C@H]3C)[C@H]12`?
TDP1 block: 14%[21 µM]

Results for Cc1ccc(NC(=O)N(Cc2ccc3c(c2)OCO3)C2CCN(Cc3ccccc3)CC2)cc1C ?
miR-21 reporter: 14%; TDP1 cell noCPT: 29µM*; TDP1 block: 7%; TDP1 cell CPT: inconclusive

Results for COc1ccc(C)cc1NC(=O)N(Cc1ccc2c(c1)OCO2)C1CCN(Cc2ccccc2)CC1 ?
miR-21 reporter: 8%; TDP1 cell noCPT: 5.2µM*; TDP1 block: 2%; TDP1 cell CPT: inconclusive

What do the screens show for `Cc1ccc(NC(=O)N(Cc2ccc3c(c2)OCO3)C2CCN(Cc3ccccc3)CC2)cc1Cl`?
miR-21 reporter: inconclusive; TDP1 cell noCPT: 15µM*; TDP1 block: 10%; TDP1 cell CPT: 4.6µM*

What do the screens show for `COc1ccccc1N1CCN(Cc2ccc3c(c2)OCO3)CC1`?
TDP1 cell noCPT: inconclusive; uPA generation: 6%; TDP1 cell CPT: -3%

How did Cc1ccc(Cl)cc1NC(=O)N(Cc1ccc2c(c1)OCO2)C1CCN(Cc2ccccc2)CC1 do in these assays?
miR-21 reporter: 10%; TDP1 cell noCPT: 13µM*; TDP1 block: 4%; TDP1 cell CPT: inconclusive

Results for Cc1cccc(N2CCN(Cc3ccc4c(c3)OCO4)CC2)c1C ?
miR-21 reporter: 1%; TDP1 cell noCPT: inconclusive; uPA generation: 2%; TDP1 cell CPT: inconclusive

How did COC(=O)C1=C(c2cccc(OC)c2OC)C[C@@H]2CC[C@H]1N2C(=O)NCCNC(C)=O do in these assays?
TDP1 cell noCPT: -2%; uPA generation: 2%; TDP1 cell CPT: 0%
